Results published in US20080015110A1.

Biological target: dicamba monooxygenase (DMO) purified from P. maltophilia, strain DI-6 (Pseudomonas maltophilia, strain DI-6) (UniProt Q5S3I3)
Assay: cell-based or functional assay

Row | Substance | Degradation of Dicamba (%) | Formation of DCSA (%)
1 | Clostridium ferredoxin | 82 | 90
2 | purified spinach ferredoxin (from UniProt P00221 51-147) | 83 | 95
